Earlier results, collected in patent publication US20050196379A1, “Combination therapies with L-FMAU for the treatment of hepatitis B virus infection” (priority 2002, published 2005).

Tested on: hepatitis B virus
Details: clinical studies, patients treated for hepatitis B

For “Interferon alpha-2b: Interferon alpha-2b, recombinant, Schering Corporation, for Injection”, the “patients with no evidence of the hepatitis B virus in their blood over time” value is given as 45%.
